By UniProt entry, the sequences of proteins in these tests, tags left out.
UniProt P08238, whole entry, looked up: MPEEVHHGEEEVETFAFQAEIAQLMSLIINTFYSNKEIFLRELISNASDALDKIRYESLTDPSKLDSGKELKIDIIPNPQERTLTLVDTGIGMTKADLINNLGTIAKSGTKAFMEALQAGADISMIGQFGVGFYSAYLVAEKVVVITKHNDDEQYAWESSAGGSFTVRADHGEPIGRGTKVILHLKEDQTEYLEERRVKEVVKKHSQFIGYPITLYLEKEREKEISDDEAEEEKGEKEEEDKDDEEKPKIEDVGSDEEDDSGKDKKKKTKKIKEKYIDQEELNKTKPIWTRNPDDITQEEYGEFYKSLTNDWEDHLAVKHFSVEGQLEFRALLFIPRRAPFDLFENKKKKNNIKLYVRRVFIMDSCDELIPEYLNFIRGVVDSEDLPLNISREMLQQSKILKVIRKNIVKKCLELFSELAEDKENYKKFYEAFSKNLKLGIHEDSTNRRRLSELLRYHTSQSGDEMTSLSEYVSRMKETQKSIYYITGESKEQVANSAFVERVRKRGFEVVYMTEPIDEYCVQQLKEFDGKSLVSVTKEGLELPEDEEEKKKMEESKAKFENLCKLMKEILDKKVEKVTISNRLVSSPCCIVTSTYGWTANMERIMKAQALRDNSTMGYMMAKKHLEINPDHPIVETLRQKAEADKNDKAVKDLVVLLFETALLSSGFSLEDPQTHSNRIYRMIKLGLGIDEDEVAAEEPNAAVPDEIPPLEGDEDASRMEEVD

According to ChEMBL document CHEMBL4627353, “Synthesis of novel dual target inhibitors of PARP and HSP90 and their antitumor activities” (Bioorg Med Chem, 2020):

Tests used:
Heat shock protein HSP90 [1] = biological target: T1, Heat shock protein HSP90 (Homo sapiens, UniProt P07900+P08238)
Heat shock protein HSP90 [2] = biological target: T1, Heat shock protein HSP90; remark: listed apart in the source
Heat shock protein HSP90 [3] = biological target: T1, Heat shock protein HSP90; remark: listed apart in the source

KSV (Heat shock protein HSP90 [1]): 4.28 ×10⁴ L/mol | Ka (Heat shock protein HSP90 [2]): 8.14 ×10⁵ L/mol | Kq (Heat shock protein HSP90 [3]): 4.28 ×10¹² L/mol/s
SMILES: O=C1/C(=C/c2ccncc2)CN(C(=O)c2cc(Cc3n[nH]c(=O)c4ccccc34)ccc2F)C/C1=C\c1ccncc1
